{
  "sequences": {"note": "By UniProt entry, the sequences of proteins in these tests, tags left out.", "UniProt P21452, whole entry": "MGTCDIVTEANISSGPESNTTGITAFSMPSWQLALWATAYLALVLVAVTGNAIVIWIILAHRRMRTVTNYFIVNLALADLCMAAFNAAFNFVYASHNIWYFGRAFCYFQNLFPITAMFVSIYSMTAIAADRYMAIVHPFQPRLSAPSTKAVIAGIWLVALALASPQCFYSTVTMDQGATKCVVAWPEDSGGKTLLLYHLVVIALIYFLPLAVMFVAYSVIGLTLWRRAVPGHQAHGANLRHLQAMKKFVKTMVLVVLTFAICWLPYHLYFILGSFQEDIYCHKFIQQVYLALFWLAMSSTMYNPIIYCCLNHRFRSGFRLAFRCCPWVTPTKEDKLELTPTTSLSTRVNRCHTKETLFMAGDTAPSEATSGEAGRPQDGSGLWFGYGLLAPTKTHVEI"},
  "source": "ChEMBL document CHEMBL4000185",
  "about": "“Pyrimidine-Based Inhibitors of Dynamin I GTPase Activity: Competitive Inhibition at the Pleckstrin Homology Domain” (J Med Chem, 2017)",
  "target": "Substance-K receptor (Homo sapiens, UniProt P21452)",
  "assay": "Displacement of [125I]NKA from human recombinant tachykinin NK2 receptor expressed in CHO cells after 60 mins by scintillation counting",
  "format": "cell-based",
  "data": [
    {"compound": "CCCC[C@H](NC(=O)[C@H](CC(C)C)NC(=O)CNC(=O)[C@@H](NC(=O)[C@H](Cc1ccccc1)NC(=O)[C@H](CO)NC(=O)[C@@H](N)CC(=O)O)C(C)C)C(N)=O", "values": [
      {"measurement": "IC50", "result": 3.6, "unit": "nM"},
      {"measurement": "Ki", "result": 2, "unit": "nM"}
    ]}
  ]
}
